Screens from PubChem BioAssay.
Compounds with a hit are over-represented: about 0.14% of the library has one in this group of screens.
Rango dissoc inh = qHTS Assay for Inhibitors of RanGTP induced Rango (Ran-regulated importin-beta cargo) - Importin beta complex dissociation; Snurportin-1 (Homo sapiens) + GTP-binding nuclear protein Ran (Homo sapiens) + Importin …; Biochemical FRET Rango-importin beta, RanGTP-induced dissociation; Potency, µM (top dose mostly 46.1 µM), for inactives: top-dose activity change, negative = inhibition; actives 0.071% (n = 340,000); further: % of control where 0% means no effect; nearly all actives have a fitted effect of over 45% in size
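Recombinant Rango FRET biosensor (EYFP–snurportin 1 IBB–cerulean CFP10) at 0.1 uM premixed with 0.25 uM importin beta in PBS, 1 mM DTT, 0.02% Tween-20, 0.1% BSA. Compound added 5 min; RanGTP-RCC1 (0.6 uM Ran, 2 mM GTP, 0.2 uM RCC1) then triggers release, read at 45 min.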
Rango-impB inh = qHTS Assay for Inhibitors of Rango (Ran-regulated importin-beta cargo) - Importin beta complex formation | Rango CFP/YFP FRET sensor + importin beta, 45 min | Potency, µM (highest dose often 92.2 µM), inactives show top-dose inhibition of complex formation | Importin subunit beta-1 (Homo sapiens), Q14974 | actives 0.031% (n = 340,000) | AID 540263, 2011;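 further: 0% = DMSO wells and 100% = buffer wells lacking importin beta; nearly all actives have a fitted effect of over 15% in size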
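FRET biosensor (snurportin 1 IBB flanked by EYFP and cerulean), 50 nM, with compound 5 min, then 0.125 microM importin beta in PBS, 1 mM DTT, 0.02% Tween-20, 0.1% BSA. CFP/YFP ratio read after 45 min at room temperature; pre-read flags interference.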
RGS4 inhibitor = Inhibitors of Regulator of G Protein Signaling (RGS) 4: qHTS | Transcreener GDP fluorescence polarization, RGS4-accelerated GTP hydrolysis | Potency, µM (doses to about 114 µM), for the others: top-dose activity change, negative = inhibition, usual class: inhibitors | actives 0.039% (n = 390,000) | AID 504845, 2011; active means well fitted inhibition curve with a large enough effect; inconclusive means small, poorly fitted or top-dose-only effect; inactive means no such curve, though single readings can be large or run the other way; further: on the % scale 0 is the no-effect control and ±100 the full control effect; nearly all actives have a fitted effect of over 75% in size
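MLSMR compounds (23 nl, pin-transferred) preincubated 10 min at room temperature with a 500nM (2x) first reagent, then RGS4 at 900nM (2x) plus Transcreener GDP mix added; fluorescence polarization (620/688 nm) read before and after 90 min at 30 °C.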
ERG-DNA inh = qHTS for Small Molecule Inhibitors of the ERG Ets/DNA interaction. fluorescence polarization, His-ERG Ets domain / labelled DNA. Potency, µM (titrated, usually from 76.9 µM), for inactives: top-dose FP activity, negative = inhibition, hits mostly inhibitors. actives 0.028% (n = 370,000). AID 624246, 2012; active means well fitted inhibition curve with a large enough effect in the polarisation, with a control signal flat; inconclusive means small, poorly fitted or top-dose-only effect, or effect the other way, or a change in a side signal; inactive means no such curve, though single readings can be large or run the other way; the % refers to the polarisation;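 further: polarization taken with two DNA probes labelled with fluorescein and Texas red; % of control where 0% means no effect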
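His-tagged ERG Ets domain (1 uM in the protein solution; 300mM KCl, 50mM Tris-HCl, 1mM EDTA, 1mM DTT, pH 7.5) received compound, then a probe mix of 5 nM fluorescein-DNA and 100nM Texas-615-DNA. Fluorescence polarization was read for both dyes.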
Active calls of the source: *; i = inactive; ? = inconclusive; . = no result; ! = repeats disagree; [ ] = dose if it differs, or a comment. Unless noted, the call rests on the fitted dose curve. Potency means the concentration at half of the fitted maximal effect.

Protein sequences, listed by entry. Tags and fused reporters are not part of them.
Importin subunit beta-1 (Homo sapiens), Q14974, UniProt Q14974, whole entry, looked up: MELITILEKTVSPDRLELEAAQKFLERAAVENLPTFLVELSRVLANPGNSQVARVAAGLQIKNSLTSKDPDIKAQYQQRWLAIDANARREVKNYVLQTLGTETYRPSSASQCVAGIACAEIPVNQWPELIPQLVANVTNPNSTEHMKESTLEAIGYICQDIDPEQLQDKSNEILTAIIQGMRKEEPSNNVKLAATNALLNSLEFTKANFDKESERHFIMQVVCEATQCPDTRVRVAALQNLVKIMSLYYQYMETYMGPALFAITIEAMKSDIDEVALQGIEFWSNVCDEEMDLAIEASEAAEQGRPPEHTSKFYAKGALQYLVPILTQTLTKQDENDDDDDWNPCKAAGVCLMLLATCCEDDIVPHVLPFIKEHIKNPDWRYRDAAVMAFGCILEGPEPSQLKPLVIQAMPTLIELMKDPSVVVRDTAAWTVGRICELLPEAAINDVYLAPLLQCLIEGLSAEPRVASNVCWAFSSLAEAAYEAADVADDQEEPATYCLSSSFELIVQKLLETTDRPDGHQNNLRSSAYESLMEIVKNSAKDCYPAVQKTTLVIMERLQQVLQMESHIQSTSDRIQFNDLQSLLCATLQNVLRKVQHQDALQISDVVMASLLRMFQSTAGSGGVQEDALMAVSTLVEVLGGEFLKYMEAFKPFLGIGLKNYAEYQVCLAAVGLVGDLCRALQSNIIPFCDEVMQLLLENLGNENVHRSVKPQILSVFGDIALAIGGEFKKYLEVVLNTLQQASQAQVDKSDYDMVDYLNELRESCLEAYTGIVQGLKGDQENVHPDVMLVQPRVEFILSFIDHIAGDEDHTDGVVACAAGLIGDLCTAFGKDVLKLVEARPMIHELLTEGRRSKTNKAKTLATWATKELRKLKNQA

SMILES	Rango dissoc inh	Rango-impB inh	RGS4 inhibitor	ERG-DNA inh
CCCCOCCCn1c(N)c(C(=O)OC(C)COC)c2nc3ccccc3nc21 (stereo not drawn)	9.2µM*	?	-37%	-9%
COCCCn1c(N)c(C(=O)OC(C)COC)c2nc3ccccc3nc21 (stereo not drawn)	?	?	0%	5%
C[n+]1c(-c2ccccc2)c2cc(N)ccc2c2ccc(N)cc21	-9%	7%	-1%	14µM*
Nc1ccc2ccc3cccc[n+]3c2c1	?	?	3%[56.9 µM]	-13%
C#CCOCCOCCOCCNc1nc(N2CCN(C(=O)CCCCCCCCCCNC(=O)[C@H]([C@@H](C)CC)n3cc(CCCCN=C(N)N)nn3)CC2)nc(N2CCN(C(=O)CCCCCCCCCCNC(=O)[C@H](CO)n3cc(CCCCCN)nn3)CC2)n1	?	73µM*	?	19%
CC[C@@H](CO)NC(=O)[C@H]1C=C2c3cccc4c3c(cn4C)C[C@H]2N(C)C1	.	.	i	.
O=[N+]([O-])c1ccc(NCc2ccccc2)c2nonc12	?	?	0%	6.3µM*
CC(n1cc(C[C@H](N)C(=O)O)c2ccccc21)n1cc(C[C@H](N)C(=O)O)c2ccccc21	.	.	i	.
Cc1cc2c(C(C)C)c(O)c(O)c(C=O)c2c(O)c1-c1c(C)cc2c(C(C)C)c(O)c(O)c(C=O)c2c1O	.	.	4.2µM*	.
COc1cccc(-n2c(/C=C/c3cccc(C)c3)nc3ccccc3c2=O)c1	.	.	14%	28µM*

4 successive records from above, for reference:
SMILES	Rango dissoc inh	Rango-impB inh	RGS4 inhibitor	ERG-DNA inh
CCCCOCCCn1c(N)c(C(=O)OC(C)COC)c2nc3ccccc3nc21 (stereo not drawn)	9.2µM*	?	-37%	-9%
COCCCn1c(N)c(C(=O)OC(C)COC)c2nc3ccccc3nc21 (stereo not drawn)	?	?	0%	5%
C[n+]1c(-c2ccccc2)c2cc(N)ccc2c2ccc(N)cc21	-9%	7%	-1%	14µM*
Nc1ccc2ccc3cccc[n+]3c2c1	?	?	3%[56.9 µM]	-13%

(list continues)
SMILES	Rango dissoc inh	Rango-impB inh	RGS4 inhibitor	ERG-DNA inh
CC12C=CC(=O)C=C1CCC1C2=CCC2(C)C1CC[C@@H]2C(=O)CN1CCN(c2cc(N3CCCC3)nc(N3CCCC3)n2)CC1 (stereo partly drawn)	.	.	-10%[56.9 µM]	.
C[C@]1(C(=O)O)CCC[C@]2(C)c3cc(O)ccc3CC[C@@H]12	.	.	1.1µM*	.
CC1=C(O)C(=O)[C@H]2O[C@@H]2C1=O	.	.	i	.
Cc1cc2ccccc2n1CCNC(=O)Cc1ccccc1	?	?	-14%	35µM*
CCOC(=O)c1c(/N=C/C2C(=O)NC(=S)NC2=O)sc2c1CCC2	9.2µM*	?	?	-5%
NCC(O)c1cc(O)c(O)cc1F (stereo not drawn)	-18%	4%	19µM*!	-12%
CCCN1CCc2cc(O)cc3c2[C@H]1Cc1ccc(O)c(O)c1-3	-28%	-4%	0.53µM*!	-7%
CCCN1CCc2cccc3c2C1Cc1ccc(O)c(O)c1-3 (stereo not drawn)	.	.	i	.
CC(=O)[C@@H]1CC[C@H]2[C@@H]3CC[C@@H]4CC(=O)CC[C@]4(C)[C@H]3CC[C@]12C	.	.	230%[56.9 µM]	.
CCOc1ccc(NC(=O)CSc2oc(-c3ccccc3)nc2S(=O)(=O)c2ccc(Cl)cc2)cc1	.	.	?	0%
CN(C)c1ccc(C=C(C#N)C#N)cc1	-7%	-3%	2%	0%
N#CC(C#N)=Cc1ccc(O)c(O)c1	-28%	-4%	19µM*!	-2%
CCC1CN2CCC1CC2C(O)c1ccnc2ccccc12 (stereo not drawn)	.	.	i	.
CC(C)C[C@H]1C(=O)N2CCCC2[C@]2(O)O[C@](NC(=O)[C@@H]3C=C4c5cccc6[nH]c(Br)c(c56)C[C@H]4N(C)C3)(C(C)C)C(=O)N12 (stereo partly drawn)	.	.	490%[56.9 µM]	.
Brc1c(NC2=NCCN2)ccc2nccnc12	.	.	19µM*	.
c1ccc(CCCN2CCN(CCOC(c3ccccc3)c3ccccc3)CC2)cc1	-12%	1%	1%[56.9 µM]	-18%
Fc1ccc(C(OCCN2CCN(CCCc3ccccc3)CC2)c2ccc(F)cc2)cc1	12%	-4%	38µM*!	.
OC[C@H]1O[C@@H](n2cnc3cc(Cl)c(Cl)cc32)[C@H](O)[C@H]1O	.	.	i	.
